System: HK-2
Assay: Cytotoxicity test (MTT assay) in HK-2
Details: HK-2 2.3 × 10^4 cells/well, 24 h

| Substance | Cytotoxicity IC30 Conc. (survival inhibited 30%) [µg/mL] | Cytotoxicity IC30 Conc. (Table 11) [µg/mL] |
| --- | --- | --- |
| Amphotericine | 4.23 |  |
| Neomycin |  | 14700 |

Reference: US20110118127A1, “MARKER GENES FOR SCREENING OF DRUG-INDUCED TOXICITY IN HUMAN CELLS AND SCREENING METHOD USING THE SAME” (priority 2009, published 2011)
